Patent publication US9340530B2, “Preparation and use of bicyclic himbacine derivatives as PAR-1 receptor antagonists” (Merck, Sharp & Dohme Corp., priority 2012, dated 2016)

Protein sequences, listed by entry. Tags and fused reporters are not part of them. Residues count along the entry.
UniProt P25116, 22-425: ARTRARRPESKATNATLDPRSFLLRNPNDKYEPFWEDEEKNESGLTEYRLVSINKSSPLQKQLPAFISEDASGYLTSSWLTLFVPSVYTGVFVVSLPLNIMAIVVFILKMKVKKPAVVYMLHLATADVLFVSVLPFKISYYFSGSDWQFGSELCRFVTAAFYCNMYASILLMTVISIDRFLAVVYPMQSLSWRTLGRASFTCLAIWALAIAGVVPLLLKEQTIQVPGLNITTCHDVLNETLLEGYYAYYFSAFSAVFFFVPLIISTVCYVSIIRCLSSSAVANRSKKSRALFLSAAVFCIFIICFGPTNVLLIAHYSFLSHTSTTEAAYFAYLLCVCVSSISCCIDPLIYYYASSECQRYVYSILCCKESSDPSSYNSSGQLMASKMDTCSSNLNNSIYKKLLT

biological target: PAR1 (Homo sapiens (Human), UniProt P25116); test: Par-1 FLIPR assay (calcium, HEK 293 cells, PAR1 activating peptide); assay type: cell-based; conditions: PAR1 selective receptor-activating peptide at 80% activation
Description: HEK 293 Cells were grown in media containing DMEM, 10% FBS pen/strep/L-Glutamine and non-essential amino acids. The cells were plated in 384-well PDL coated plates at 12000 cells/well and incubated overnight at 37° C./5% CO2. Media was then removed from the cells, which were then incubated with buffer (Hank's containing HEPES and Chaps) containing FLIPR calcium-5 dye, made with buffer containing probenecid, for 60 minutes at 37° C. Varying concentrations of compound in a final concentration of 5% DMSO were then added to the cells and incubated at 25° C. for 30 minutes. The plates were then added to the FLIPR Tetra and the device added a concentration of a PAR1 selective receptor-activating peptide with the sequence Ala-parafluoroPhe-Arg-Cha-Cit-Try-Nh2 (prepared in water) at a concentration equal to the effective concentration that achieves 80% activation of signaling on the day of the experiment. The range was from 1.4-2.0 μM peptide. The FLIPR reads at an excitation wavelength of 480 nm and an emission wavelength of 535 nm, and performs 60 scans over a 1-2 min reading time. The data were analyzed by taking the peak signal over a portion of the range of the 60 scans and dividing this signal by the minimum signal for that same range.

| Structure (SMILES) | IC50 [nM] |
| --- | --- |
| C[C@H]1NC(=O)[C@]2(O)CC(F)(F)[C@@H](C)[C@H](/C=C/c3ccc(-c4ccccc4C#N)cn3)[C@H]12 [Example 79] | 5.8 |
| C[C@H]1OC(=O)[C@]2(C3(O)COC3)CC(F)(F)[C@@H](C)[C@H](/C=C/c3ccc(-c4ccccc4C#N)cn3)[C@H]12 [Example 16] | 8 |
| C[C@H]1OC(=O)[C@]2(Cc3nn[nH]n3)CC(F)(F)[C@@H](C)[C@H](/C=C/c3ccc(-c4ccccc4Cl)cn3)[C@H]12 [Example 27] | 7.5 |
| C[C@H]1OC(=O)[C@@H]2CC(F)(F)[C@@H](C)[C@H](/C=C/c3ccc(-c4ccccc4-c4nnn[nH]4)cn3)[C@H]12 [Example 75] | 346 |
| C[C@H]1OC(=O)[C@]2(CC#N)CC(F)(F)[C@@H](C)[C@H](/C=C/c3ccc(-c4ccccc4C#N)cn3)[C@H]12 [Example 14] | 5.1 |
| Cc1cccc(-c2ccc(/C=C/[C@@H]3[C@@H]4[C@@H](C)OC(=O)[C@]4(CN)CC(F)(F)[C@H]3C)nc2)c1C#N [Example 77] | 1.2 |
| C[C@H]1OC(=O)[C@]2(NS(C)(=O)=O)CC(F)(F)[C@@H](C)[C@H](/C=C/c3ccc(-c4ccccc4C#N)cn3)[C@H]12 [Example 68] | 7 |
| C[C@H]1NC(=O)[C@@H]2CC(F)(F)[C@@H](C)[C@H](/C=C/c3ccc(-c4ccccc4C#N)cn3)[C@H]12 [Example 78] | 1.5 |
